The nature of the assay: Metal chelating activity assessed as compound-Fe3+ complex formation by measuring fluorescence signal by fluorescence spectrophotometry.

In the case of `CC(C)OP(=O)(F)OC(C)C`, the Activity worked out at 20.9.

These data come from ChEMBL document CHEMBL5344424, “3-Hydroxypyridin-4(1H)-one Derivatives as pqs Quorum Sensing Inhibitors Attenuate Virulence and Reduce Antibiotic Resistance in Pseudomonas aeruginosa” (J Med Chem, 2023).
